Values of other authors, collected in US20090311303A1, “BIODEGRADABLE IMPLANTS FOR BONE FUSION AND COMPOSITIONS THEREFOR” (Queensland University of Technology, priority 2006, published 2009).

Conditions: background statement

For “BMP-2: growth factor, bone morphogenetic protein-2”, the “rapid inactivation in vivo after” value is given as 20 to 30 min.
